Ab-95 light chain CDR variants: yeast mating affinities

From the AlphaSeq antibody data of Engelhart et al. 2022 (doi:10.1038/s41597-022-01779-4), copy in the FLAb collection.

Antigen: PDVDLGDISGINAS, a 14-residue peptide of the SARS-CoV-2 spike HR2 region.

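The starting antibody came from a phage panning campaign against this peptide. Variants in AAYL52 differ from the parent at up to three CDR positions; double and triple changes were sampled at random. The assay is AlphaSeq: two haploid yeast populations carry antibody and antigen on their surface. After mating in shaken culture at 30 °C for 16 h, diploids were selected and their barcode pairs sequenced. Each replicate has its own calibration line, from reference interactions of the BCL2 family. The assay was run in three technical replicates.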

Parent: Ab-95, a human scFv built as VH, a (GGGGS)3 linker, VL. Only the CDRs of the light chain vary.
VH: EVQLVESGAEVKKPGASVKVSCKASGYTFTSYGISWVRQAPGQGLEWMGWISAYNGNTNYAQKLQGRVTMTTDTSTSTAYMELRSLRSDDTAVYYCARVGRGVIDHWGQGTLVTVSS
VL: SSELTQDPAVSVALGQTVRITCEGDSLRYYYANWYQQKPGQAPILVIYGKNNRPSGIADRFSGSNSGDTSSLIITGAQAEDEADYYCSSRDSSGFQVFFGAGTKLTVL

Substitutions are numbered in sequence along the VL above, starting at 1 (not Kabat).
This list gathers variants with a substitution at G94 (VL, numbered from residue 1).
The read-out is the apparent dissociation constant on a log10 scale (nM): the lower, the stronger.
Where no diploid with the target was found in that replicate, the entry reads "nd": below detection, most likely a poor binder, though not proof of it.

For L27I/Y31E/G94W, the assay gave 2.34, 1.67, 2.04 (controls 3 of 9). Variant N52C/R53D/G94P gave nd, nd, nd (controls 1 of 9). Variant N51E/G94I/F98R showed nd, 5.04, nd (controls 0 of 9). For R53L/S93Q/G94D, the assay gave 3.69, 3.08, nd (controls 7 of 9). For G24Y/G94R/F98Q, the assay gave 2.56, 3.02, 2.66 (controls 2 of 9). With Y29F/S92I/G94N the result was 3.67, nd, nd (controls 1 of 9). Variant S26W/Y30S/G94Y gave 1.59, 1.34, 1.66 (controls 3 of 9). Variant R28I/S92V/G94L showed nd, nd, 4.13 (controls 2 of 9). Variant Y29L/G94M/Q96A gave nd, nd, nd (controls 0 of 9).

Variant S26D/N51G/G94M showed 4.07, nd, nd (controls 1 of 9). Variant L27S/G94P/Q96A showed 4.13, 4.66, nd (controls 4 of 9). For K50L/S89M/G94C, the assay gave 5.29, 5.41, nd (controls 5 of 9). Variant N33Q/R90V/G94T gave 3.53, nd, nd (controls 3 of 9). For L27D/S93P/G94Y, the assay gave 3.65, 3.40, 3.54 (controls 1 of 9). For G24C/G94V, the assay gave 2.83, 2.93, 3.17 (controls 2 of 9). Variant E23Q/R28K/G94M gave 3.36, 2.30, 3.49 (controls 6 of 9). For S26G/D91N/G94H, the assay gave nd, 3.40, nd (controls 0 of 9). Variant A32C/G94S/V97T gave 2.78, 2.90, 2.22 (controls 2 of 9).

For Y31H/A32N/G94A, the assay gave 3.05, 2.33, 2.94 (controls 3 of 9). Variant D25F/G49T/G94H showed 3.16, 2.76, nd (controls 4 of 9). Variant S88R/D91Q/G94I showed 2.53, 2.65, 2.35 (controls 1 of 9). Variant Y29N/R90I/G94T gave 1.43, 1.23, 0.93 (controls 0 of 9). For S93Q/G94D/Q96D, the assay gave 3.31, 3.97, 3.38 (controls 1 of 9). Variant R90T/G94A/F98N gave 3.67, 3.17, nd (controls 1 of 9). Variant G24D/G94T gave 3.66, 5.47, 3.91 (controls 1 of 9). Variant G49F/R90H/G94Y gave nd, nd, nd (controls 4 of 9). For R28T/Y29H/G94I, the assay gave 3.94, 3.25, 3.02 (controls 6 of 9).

For L27R/G94E, the assay gave 5.31, 5.96, 4.73 (controls 6 of 9). For S55E/G94L, the assay gave nd, nd, nd (controls 1 of 9). Variant G94I gave 3.21, 2.69, nd (controls 6 of 9). Variant S92C/S93T/G94D gave 2.60, 1.75, 1.75 (controls 1 of 9). Variant L27F/R53C/G94D gave nd, 3.76, 4.40 (controls 3 of 9). For Y30S/R90Q/G94L, the assay gave 1.53, 1.22, 0.96 (controls 5 of 9). Variant D25C/S26M/G94K showed nd, nd, nd (controls 0 of 9). Variant G94P/V97N gave 3.43, 3.01, nd (controls 0 of 9).

Picked from the list: the 3 lowest averages where every replicate gave a value.

| changes | replicates, log10 nM | empty controls |
|---|---|---|
| Y29N/R90I/G94T | 1.43, 1.23, 0.93 | 0 of 9 |
| Y30S/R90Q/G94L | 1.53, 1.22, 0.96 | 5 of 9 |
| S26W/Y30S/G94Y | 1.59, 1.34, 1.66 | 3 of 9 |

Background: pairings of library AAYL52 with three empty control strains gave a value in 28% of cases (median 3.91, 5th percentile 2.90). Values in that range, when seen in few replicates, are hard to tell from nonspecific mating. The control count says in how many pairings with the empty strains this scFv gave a signal.
For reference, the parent read 2.31 as the reference entry and 2.25 as a member of this library.